Assay results published in ChEMBL document CHEMBL1201862, “PubChem BioAssay data set” (2004).
Calls of active or inactive are those of the source.

Sequences of proteins named here, by UniProt entry; tags and fusion partners are left off. A change or cut given only in a name is not applied to a line headed by its entry.
UniProt P78536: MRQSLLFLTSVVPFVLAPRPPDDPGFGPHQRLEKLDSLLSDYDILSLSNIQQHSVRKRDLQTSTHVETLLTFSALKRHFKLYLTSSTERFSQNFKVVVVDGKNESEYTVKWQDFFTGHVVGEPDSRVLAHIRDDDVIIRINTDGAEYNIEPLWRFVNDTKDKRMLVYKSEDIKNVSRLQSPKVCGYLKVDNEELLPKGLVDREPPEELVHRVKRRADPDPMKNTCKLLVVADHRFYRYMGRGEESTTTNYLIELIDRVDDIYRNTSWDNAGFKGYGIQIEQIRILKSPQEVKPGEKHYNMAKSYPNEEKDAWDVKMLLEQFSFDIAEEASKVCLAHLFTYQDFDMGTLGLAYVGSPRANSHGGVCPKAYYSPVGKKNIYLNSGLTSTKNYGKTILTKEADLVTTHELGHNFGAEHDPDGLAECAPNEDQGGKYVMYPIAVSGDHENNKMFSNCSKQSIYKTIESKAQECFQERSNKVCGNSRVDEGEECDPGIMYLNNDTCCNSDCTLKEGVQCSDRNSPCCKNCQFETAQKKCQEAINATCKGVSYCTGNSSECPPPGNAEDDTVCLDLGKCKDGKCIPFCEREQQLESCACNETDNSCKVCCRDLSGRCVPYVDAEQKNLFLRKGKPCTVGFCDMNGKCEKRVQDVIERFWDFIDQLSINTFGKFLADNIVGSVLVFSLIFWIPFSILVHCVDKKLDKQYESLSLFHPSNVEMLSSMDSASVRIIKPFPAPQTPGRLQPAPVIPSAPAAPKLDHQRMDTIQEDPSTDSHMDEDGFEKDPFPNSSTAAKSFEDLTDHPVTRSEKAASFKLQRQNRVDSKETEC
UniProt P41145: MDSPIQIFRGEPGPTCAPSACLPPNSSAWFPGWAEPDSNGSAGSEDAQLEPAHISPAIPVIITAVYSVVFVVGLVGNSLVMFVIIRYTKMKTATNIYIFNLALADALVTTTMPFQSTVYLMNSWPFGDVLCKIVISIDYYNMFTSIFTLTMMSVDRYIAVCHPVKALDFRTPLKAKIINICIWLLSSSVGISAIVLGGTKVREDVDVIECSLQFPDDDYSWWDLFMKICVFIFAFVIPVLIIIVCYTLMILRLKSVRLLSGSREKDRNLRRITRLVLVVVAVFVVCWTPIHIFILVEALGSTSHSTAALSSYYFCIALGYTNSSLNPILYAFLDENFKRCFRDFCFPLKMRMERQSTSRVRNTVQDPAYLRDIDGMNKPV

Key:
[1] = target: T1, Disintegrin and metalloproteinase domain-containing protein 17 (Homo sapiens, UniProt P78536); assay: exosite inhibitors of ADAM17, dose response, biochemical (AID 743260)
[2] = target: T1, Disintegrin and metalloproteinase domain-containing protein 17; assay: inhibition of ADAM17 substrate cleavage – biochemical, quenched FRET substrate, counter-screen for ADAM10 exosite inhibitor project, dose response (AID 743253)
[3] = target: Kappa-type opioid receptor (Homo sapiens, UniProt P41145); assay: SAR analysis of Antagonists of the Kappa Opioid Receptor (KOR) using an Image-Based Assay - Set 3. [Related pubchem assays (depositor defined):AID1777, AID1785]; type: functional

IC50 [1] | IC50 [2] | IC50 [3] | SMILES
active: 11.5 nM | active: 25.4 nM | – | CNC(=O)[C@@H](NC(=O)[C@H](CC(C)C)[C@H](O)C(=O)NO)C(C)(C)C
– | – | active: 570 nM | Cc1ccc(S(=O)(=O)NCc2ccc(C(=O)NCCN(Cc3ccc(Br)cc3)C(C)C)cc2)cc1
